Experimental data: publication PMC5012888, “Structure-based identification and characterisation of structurally novel human P2X7 receptor antagonists” (Biochemical Pharmacology, 2016)

Sequences of proteins named here, by UniProt entry; tags and fusion partners are left off.
UniProt Q99572, whole entry: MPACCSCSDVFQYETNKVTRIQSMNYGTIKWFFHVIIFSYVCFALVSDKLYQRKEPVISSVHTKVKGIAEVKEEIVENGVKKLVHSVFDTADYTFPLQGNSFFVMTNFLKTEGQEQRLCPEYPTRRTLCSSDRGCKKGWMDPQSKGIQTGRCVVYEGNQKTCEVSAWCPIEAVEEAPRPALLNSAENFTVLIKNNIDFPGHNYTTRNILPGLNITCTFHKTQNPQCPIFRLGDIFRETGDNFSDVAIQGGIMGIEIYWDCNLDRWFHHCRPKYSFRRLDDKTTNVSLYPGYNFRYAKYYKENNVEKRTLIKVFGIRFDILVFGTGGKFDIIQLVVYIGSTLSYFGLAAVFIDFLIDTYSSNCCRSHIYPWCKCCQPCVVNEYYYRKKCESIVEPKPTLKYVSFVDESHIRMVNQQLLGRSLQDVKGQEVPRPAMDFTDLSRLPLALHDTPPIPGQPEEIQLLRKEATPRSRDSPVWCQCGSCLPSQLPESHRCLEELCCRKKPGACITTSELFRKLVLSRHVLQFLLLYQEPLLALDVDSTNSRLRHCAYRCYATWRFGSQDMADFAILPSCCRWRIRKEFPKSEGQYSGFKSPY
UniProt Q64663, whole entry: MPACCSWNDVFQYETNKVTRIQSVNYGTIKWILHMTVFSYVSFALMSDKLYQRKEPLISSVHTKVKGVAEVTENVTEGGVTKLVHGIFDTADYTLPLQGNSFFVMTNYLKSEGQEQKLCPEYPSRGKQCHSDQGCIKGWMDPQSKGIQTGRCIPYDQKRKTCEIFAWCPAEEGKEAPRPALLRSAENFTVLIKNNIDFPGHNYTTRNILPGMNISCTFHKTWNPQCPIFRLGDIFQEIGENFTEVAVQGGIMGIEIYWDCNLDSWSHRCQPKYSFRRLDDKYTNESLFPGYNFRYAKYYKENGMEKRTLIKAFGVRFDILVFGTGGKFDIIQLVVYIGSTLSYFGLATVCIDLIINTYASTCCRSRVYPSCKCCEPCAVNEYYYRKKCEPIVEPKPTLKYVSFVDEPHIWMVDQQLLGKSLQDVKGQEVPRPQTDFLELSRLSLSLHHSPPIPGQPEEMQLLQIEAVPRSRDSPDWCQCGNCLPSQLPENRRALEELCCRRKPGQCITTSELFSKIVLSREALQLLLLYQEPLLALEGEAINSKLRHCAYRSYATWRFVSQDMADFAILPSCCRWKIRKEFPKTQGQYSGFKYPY
UniProt Q99571, whole entry: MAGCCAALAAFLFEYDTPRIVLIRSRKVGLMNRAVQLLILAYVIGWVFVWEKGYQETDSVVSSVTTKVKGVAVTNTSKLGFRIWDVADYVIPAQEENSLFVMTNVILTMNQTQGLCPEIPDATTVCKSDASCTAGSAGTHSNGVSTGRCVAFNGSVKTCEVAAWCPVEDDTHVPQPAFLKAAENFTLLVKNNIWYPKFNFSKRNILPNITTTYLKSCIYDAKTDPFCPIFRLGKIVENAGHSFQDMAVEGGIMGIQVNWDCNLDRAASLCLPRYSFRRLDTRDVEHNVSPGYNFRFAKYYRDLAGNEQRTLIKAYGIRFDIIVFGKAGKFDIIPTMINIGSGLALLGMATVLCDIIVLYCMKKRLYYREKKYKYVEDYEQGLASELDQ
UniProt P49654, whole entry: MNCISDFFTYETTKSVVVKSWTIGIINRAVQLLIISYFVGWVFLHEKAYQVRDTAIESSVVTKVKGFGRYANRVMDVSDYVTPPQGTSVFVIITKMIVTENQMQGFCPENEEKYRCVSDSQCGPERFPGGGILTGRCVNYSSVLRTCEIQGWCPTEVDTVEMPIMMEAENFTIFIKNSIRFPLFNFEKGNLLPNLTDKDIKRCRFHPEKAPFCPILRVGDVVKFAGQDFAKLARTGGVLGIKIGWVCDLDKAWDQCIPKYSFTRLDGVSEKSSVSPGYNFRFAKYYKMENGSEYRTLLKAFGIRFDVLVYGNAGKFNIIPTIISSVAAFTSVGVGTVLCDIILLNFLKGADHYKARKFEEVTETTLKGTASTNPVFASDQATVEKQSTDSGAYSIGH

Experiments:
hP2X7R [1] = target: T1, hP2X7R (Homo sapiens, UniProt Q99572); experiment: BzATP-induced Ca2+ responses in HEK293 cells expressing hP2X7R (FlexStation, Fura-2); details: 300 μM BzATP
rP2X7R = rP2X7R (Rattus norvegicus, UniProt Q64663); experiment: BzATP-induced Ca2+ responses in HEK293 cells expressing rP2X7R (FlexStation, Fura-2); details: compound at 10 μM; 300 μM BzATP
hP2X7R [2] = target: T1, hP2X7R; experiment: Whole-cell patch-clamp recording of BzATP-induced currents in hP2X7R-expressing HEK293 cells; details: 300 μM BzATP
hP2X7R [3] = target: T1, hP2X7R; experiment: BzATP-induced YO-PRO-1 uptake (large pore formation) in hP2X7R-expressing HEK293 cells, FlexStation; details: read-out: IC50 (μM) (dye uptake), YO-PRO-1 uptake induced by 300 μM BzATP, mean ± SEM
hP2X7R [4] = target: T1, hP2X7R; experiment: ATP-induced YO-PRO-1 uptake by single cell imaging in hP2X7R-expressing HEK293 cells; details: 5 μM compound; 1 mM ATP, 30 min; ATP alone 63.0 ± 11.7%, control 14.7 ± 4.0%
[5] = system: hP2X7R-expressing HEK293 cells; experiment: PI staining assay of ATP-induced cell death; details: compound at 10 and 30 μM, 3 mM ATP, 6 h
hP2X4R = hP2X4R (Homo sapiens, UniProt Q99571); experiment: ATP-induced Ca2+ responses in hP2X4R-expressing HEK293 cells; details: compound at 10 μM; 100 μM ATP
From the text: (§1) Human embryonic kidney (HEK) 293 cells stably expressing C-terminally EE-tagged human or rat P2X7R [42], [34], human P2X4R [15] and rat P2X3R [28] were generated in previous studies. A stable HEK293 cell line expressing C-terminally His-tagged human P2X7R was generated in this study and there was no difference in the experimental results using EE-tagged and His-tagged human P2X7R. These cells were maintained in Dulbecco’s Modified Eagle Medium (Life Technologies) supplemented with 10% foetal bovine serum and […] G418 in a tissue culture incubator at 37°C and 5% CO2 under humidified conditions. Cells were cultured in T25 flasks and split (every 3–4 days) once confluent.
(§2) FlexStation II and III (Molecular Devices) were used to measure intracellular Ca^2+ concentrations ([Ca^2+]i). Human or rat P2X7R-expressing HEK293 cells were plated in poly-D-lysine-coated 96-well plates (Molecular Devices) with 50,000 cells per well 24 h prior to use. […] Cells were excited at 340 nm and 380 nm alternatively and the emission at 510 nm recorded using a FlexStation. The ratio of fluorescence intensity (F340/F380) was used to indicate the [Ca^2+]i. The basal [Ca^2+]i was recorded for 60 s prior to the exposure to agonist and recording was continued for a further 120 s. […] The maximal changes in F340/F380 (ΔF340/380) were used for quantitative analysis.

rP2X3R = rP2X3R (Rattus norvegicus, UniProt P49654); experiment: ATP-induced Ca2+ responses in rP2X3R-expressing HEK293 cells; details: compound at 10 μM; 100 μM ATP
From the text: as §1, §2

## CN(Cc1c(F)cccc1Cl)C(=O)c1ccc([N+](=O)[O-])s1
hP2X7R [1]; compound at 10 μM
  inhibition of BzATP-induced Ca^2+ responses (hP2X7R): 91.2 ± 4%
hP2X7R [1]; highest concentrations applied (10–30 μM)
  extent of inhibition of BzATP-induced Ca^2+ responses at highest concentrations: complete inhibition
hP2X7R [1]; read-out: IC50 (μM) (Ca^2+ response), hP2X7R-expressing HEK293 cells, mean ± SEM
  IC50: 3.2 µM
rP2X7R
  inhibition of BzATP-induced Ca^2+ responses (rP2X7R): 66.2 ± 22%
hP2X7R [2]; applied at 30–100 μM
  effect on BzATP-induced currents: no inhibition
hP2X7R [2]; read-out: IC50 (μM) (current), 4 s, whole-cell patch-clamp, hP2X7R-expressing HEK293 cells, mean ± SEM
  IC50: > 100 µM
hP2X7R [3]
  IC50: 0.8 µM
hP2X7R [4]
  percentage of YO-PRO-1 positive cells in ATP-treated cells: 33.8 ± 5.6%
[5]
  reduction of ATP-induced cell death: ≥ 50%
hP2X4R
  effect on ATP-induced Ca^2+ responses in hP2X4R-expressing HEK293 cells: no significant effect
rP2X3R
  effect on rP2X3R-mediated ATP-induced Ca^2+ responses: smaller but statistically insignificant inhibition
